For 31 compounds, activity change, negative = inhibition results are on record in PubChem BioAssay AID2112 (National Center for Advancing Translational Sciences (NCATS), 2009).

Molecules are shown by their SMILES. Where “and” joins values, the source holds several entries; their conditions need not be identical. Identical values can stand only once. This is a selection; strong and weak results do not stand in their true shares. Calls of active or inactive are those of the source. Calls come from the whole dose curve; as a rule, active = well fitted inhibition curve with a large enough effect; inconclusive = small, poorly fitted or top-dose-only effect, or effect the other way, or another doubt; inactive = no such curve, though single readings can be large or run the other way.

This experiment deals with Lysosomal alpha-glucosidase (Homo sapiens) (UniProt P10253). The experiment in a line: qHTS Assay for Inhibitors and Activators of Human alpha-Glucosidase From Spleen Homogenate.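 Note: 0% = enzyme with vehicle and -100% = no enzyme basal signal.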 The conditions noted are these: 4-MU-alpha-glucoside fluorescence; at 79.9 µM (top of the series) unless noted. An excerpt:
NIH Chemical Genomics Center [NCGC] NIH Molecular Libraries Probe Production Centers Network [MLPCN] MLPCN Grant: R03 MH084841-01 Assay Submitter (PI): Wei Zheng NCGC Assay Overview: Alpha-glucosidase is responsible for the hydrolysis of terminal, non-reducing 1,4-linked alpha-D-glucose residues, which releases alpha-D-glucose. It is a lysosomal hydrolase that is required for the degradation of a small percentage (1-3%) of cellular glycogen in humans. Deficiency of this enzyme results in glycogen-storage disease type II (GSDII), also referred to as Pompe disease, an autosomal recessive disorder. Structurally normal glycogen is accumulated in the lysosomes and cytoplasm in affected patients, primarily in muscle tissues. Excessive glycogen storage within lysosomes may interrupt normal functioning of other organelles and leads to cellular injury. In turn, this leads to enlargement and dysfunction of the entire organ involved (eg: cardiomyopathy and muscle weakness). It has been reported that the improper folding and trafficking of alpha-glucosidase resulting from genetic mutations may account for a significant number of Pompe patients. […] We optimized this alpha-glucosidase assay in 1536-well plate format for identification of novel small molecule inhibitors or activators with structures other than the sugar analogs in order to develop new pharmacological chaperones. In particular, this assay is directed towards discovering compounds active in a more natural setting, tissue homogenate, that may have been missed by screens of the purified enzyme under more stringent conditions.
NCGC Assay Protocol Summary: This is a fluorogenic enzyme assay with 4-methylumbelliferyl-alpha-D-glucopyranoside as the substrate and human spleen homogenate containing alpha-glucosidase as the enzyme preparation. Upon hydrolysis of this fluorogenic substrate, the resulting product, 4-methylumbelliferone (which excites at 365 nm and emits at 440 nm) can be detected by a fluorescence plate reader. Data were normalized to the controls for basal activity (without enzyme) and 100% activity (with enzyme). The AC50 values were determined from concentration-response data modeled with the standard Hill equation. Assay buffer: 50 mM citric acid (titrated with potassium phosphate to pH 5.0), 0.01% Tween-20 (pH 5.0 is an optimal condition for this enzyme assay) 1536-well assay protocol for the alpha-glucosidase from human spleen homogenate: (1) Add 2 ul/well spleen homogenate (1 ug) (2) Add 23 nL compounds in DMSO solution. The final titration was 0.5 nM to 58 uM. (3) Add 2 ul of substrate (1 mM final) (4) Incubate at 37 C for 40 min (5) Add 2 ul stop solution (1M NaOH and 1M Glycine mixture, pH 10) (6) Detect the assay plate in a ViewLux plate reader (PerkinElmer) with Ex=365 nm and Em=440nm. Keywords: Alpha-glucosidase, Pompe Disease, pharmacological chaperone, chaperone therapy, high throughput screening, alpha-glucosidase inhibitor, MLSMR, MLSCN, NIH Roadmap, qHTS and NCGC
On the technique in general: In qHTS, concentration-response curves come from the screen itself.
With `Oc1ccccc1CNc1ccccn1`, the activity change, negative = inhibition was inactive: 5%.
With `O=C(NC(Sc1ccncn1)C(Cl)(Cl)Cl)c1ccccc1` (stereo unspecified), the activity change, negative = inhibition is inactive: -2.72%.
As for `Cc1c2non([O-])c-2c(C)[n+](=O)[n+]1[O-]`, the figure is inactive: -27.9%; as for `Nc1cc(N)c2nonc2c1[N+](=O)[O-]`, inactive: -5.54%; as for `CC(C)CC(=O)NC(Sc1ccc(Cl)cc1)C(Cl)(Cl)Cl` (stereo unspecified), inactive: -5.65%.
For `O=P(Nc1nc2ccc(Cl)cc2s1)(c1ccccc1)c1ccccc1` the value was inactive: 3.33%; for `CC(=O)Nc1ccc([As](=O)(O)O)cc1`, inactive: 3.56%; for `O=C(O)c1ccccc1[As](=O)(O)O`, inactive: -4.41%.
For `Cc1cc(SC(NC(=O)c2ccc(F)cc2)C(Cl)(Cl)Cl)ncn1` (stereo unspecified), the activity change, negative = inhibition is inactive: -3.66%.
`CCOP(=O)(Nc1ccccc1)OCC`: the activity change, negative = inhibition was inactive: 0.0449% and inactive: 4.5%.
For `Cc1ccc(NP(=O)(Oc2ccccc2F)Oc2ccccc2F)nc1` the value was inactive: 1.86%; for `Nc1cccc2ccc([As](=O)(O)O)cc12`, inactive: -0.725%; for `CCN(N=Nc1nonc1N)c1nonc1N`, inactive: 6.2%.
In the case of `O=C(Nc1cc([As](=O)(O)O)ccc1O)c1ccccc1`, the activity change, negative = inhibition was inactive: 5.63%.
As for `O=[N+]([O-])c1ncn(CCn2ncnc2[N+](=O)[O-])n1`, the figure is inactive: 5.84%.
As for `CC(C)(C)C(=O)NC(Sc1ccncn1)C(Cl)(Cl)Cl` (stereo unspecified), the activity change, negative = inhibition was inactive: -9.65%.
For `O=C(O)CNc1ccc([As](=O)(O)O)cc1` the value was inactive: 2.31%; for `O=[N+]([O-])c1cccc(NC2=NCC(CBr)S2)c1` (stereo unspecified), inactive: 2.76%.
As to `COc1ccc(C2=NCC(CBr)S2)cc1` (stereo unspecified), the activity change, negative = inhibition was inactive: 4.85%.
For `Cc1ccc(NP(=O)(Oc2ccccc2)Oc2ccccc2)nc1` the value was inactive: 3.5%.
With `CCc1nc2c(n1)c1c(non1O)c1c2no[n+]1[O-]`, the activity change, negative = inhibition is inactive: -1.44%.
As for `O=[N+]([O-])c1cc([N+](=O)[O-])c(CCNc2ccccc2)c([N+](=O)[O-])c1`, the figure is inactive: -4.98%; as for `O=[N+]([O-])c1cccc2n[nH]nc12`, inactive: 0.53%; as for `CC(=O)N1C2C3N(C(C)=O)C1C1N(C(C)=O)C(C(N1C(C)=O)N3C(C)=O)N2C(C)=O`, inactive: -16.6%.
For `CCN(/C(=N/P(=O)(N1CCOCC1)N1CCOCC1)N1CCOCC1)c1ccc(OC)cc1` the value was inactive: -4.8%.
As for `Nc1ccc([As](=O)(O)c2ccc(N)cc2)cc1`, the figure is inactive: 0.449%; as for `C[N+]1=C2C=CC=CC=C2SC12C([N+](=O)[O-])=CC([N+](=O)[O-])=C[C-]2[N+](=O)[O-]` (stereo unspecified), inactive: -9.3%.
For the compound `CC(=O)C1=CCCC2CCC1N2` (stereo unspecified), the activity change, negative = inhibition was inactive: 7.18% and inactive: -3.45%.
For the compound `CC1CCN(C(=O)Oc2c(Cl)cc(Cl)c3cccnc23)CC1`, the activity change, negative = inhibition was inactive: -7%.
`CC(C)=N/N=C(\N)N[N+](=O)[O-]`: the activity change, negative = inhibition was inactive: -4.17%.
In the case of `CN(C)C(=O)OCCc1n(C)cc[n+]1C`, the activity change, negative = inhibition was inactive: -7.54%.
